This is an account of results in patent US20200317660A1, “Quinazolinone Compound and Application Thereof” (LUOXIN PHARMACEUTICAL (SHANGHAI) CO., LTD., priority 2017, published 2020).

By UniProt entry, the sequences of proteins in these tests, tags left out. Where a name states a change or a piece, a line headed by the entry shows the natural chain unless it says otherwise.
UniProt P42336, whole entry: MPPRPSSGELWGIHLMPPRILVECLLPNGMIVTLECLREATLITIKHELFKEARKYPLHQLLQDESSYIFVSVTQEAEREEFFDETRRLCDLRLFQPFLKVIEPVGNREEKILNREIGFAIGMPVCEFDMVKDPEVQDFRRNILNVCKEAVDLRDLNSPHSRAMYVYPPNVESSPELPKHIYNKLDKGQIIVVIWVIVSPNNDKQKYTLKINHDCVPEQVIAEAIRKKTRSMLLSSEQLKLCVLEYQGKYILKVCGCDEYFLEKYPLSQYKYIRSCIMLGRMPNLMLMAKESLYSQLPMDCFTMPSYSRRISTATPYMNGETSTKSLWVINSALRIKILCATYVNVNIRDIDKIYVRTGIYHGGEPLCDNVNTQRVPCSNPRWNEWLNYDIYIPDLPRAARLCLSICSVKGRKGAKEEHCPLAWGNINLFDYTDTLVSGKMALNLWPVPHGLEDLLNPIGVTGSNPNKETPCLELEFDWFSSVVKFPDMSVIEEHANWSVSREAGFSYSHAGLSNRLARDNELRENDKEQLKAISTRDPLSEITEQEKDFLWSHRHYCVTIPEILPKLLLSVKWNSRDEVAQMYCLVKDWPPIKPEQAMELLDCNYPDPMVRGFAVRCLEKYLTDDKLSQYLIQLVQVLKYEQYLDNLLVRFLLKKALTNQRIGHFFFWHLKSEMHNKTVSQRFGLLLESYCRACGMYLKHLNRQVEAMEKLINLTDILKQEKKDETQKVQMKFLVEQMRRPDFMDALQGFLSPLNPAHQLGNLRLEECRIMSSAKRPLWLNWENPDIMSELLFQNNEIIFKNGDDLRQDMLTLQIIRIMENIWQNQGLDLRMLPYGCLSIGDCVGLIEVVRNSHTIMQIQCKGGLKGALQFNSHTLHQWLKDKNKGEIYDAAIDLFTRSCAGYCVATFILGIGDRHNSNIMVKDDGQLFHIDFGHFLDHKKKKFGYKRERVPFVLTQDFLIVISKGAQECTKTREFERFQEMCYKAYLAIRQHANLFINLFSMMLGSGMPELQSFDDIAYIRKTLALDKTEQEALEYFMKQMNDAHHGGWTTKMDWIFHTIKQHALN
UniProt P42338, whole entry: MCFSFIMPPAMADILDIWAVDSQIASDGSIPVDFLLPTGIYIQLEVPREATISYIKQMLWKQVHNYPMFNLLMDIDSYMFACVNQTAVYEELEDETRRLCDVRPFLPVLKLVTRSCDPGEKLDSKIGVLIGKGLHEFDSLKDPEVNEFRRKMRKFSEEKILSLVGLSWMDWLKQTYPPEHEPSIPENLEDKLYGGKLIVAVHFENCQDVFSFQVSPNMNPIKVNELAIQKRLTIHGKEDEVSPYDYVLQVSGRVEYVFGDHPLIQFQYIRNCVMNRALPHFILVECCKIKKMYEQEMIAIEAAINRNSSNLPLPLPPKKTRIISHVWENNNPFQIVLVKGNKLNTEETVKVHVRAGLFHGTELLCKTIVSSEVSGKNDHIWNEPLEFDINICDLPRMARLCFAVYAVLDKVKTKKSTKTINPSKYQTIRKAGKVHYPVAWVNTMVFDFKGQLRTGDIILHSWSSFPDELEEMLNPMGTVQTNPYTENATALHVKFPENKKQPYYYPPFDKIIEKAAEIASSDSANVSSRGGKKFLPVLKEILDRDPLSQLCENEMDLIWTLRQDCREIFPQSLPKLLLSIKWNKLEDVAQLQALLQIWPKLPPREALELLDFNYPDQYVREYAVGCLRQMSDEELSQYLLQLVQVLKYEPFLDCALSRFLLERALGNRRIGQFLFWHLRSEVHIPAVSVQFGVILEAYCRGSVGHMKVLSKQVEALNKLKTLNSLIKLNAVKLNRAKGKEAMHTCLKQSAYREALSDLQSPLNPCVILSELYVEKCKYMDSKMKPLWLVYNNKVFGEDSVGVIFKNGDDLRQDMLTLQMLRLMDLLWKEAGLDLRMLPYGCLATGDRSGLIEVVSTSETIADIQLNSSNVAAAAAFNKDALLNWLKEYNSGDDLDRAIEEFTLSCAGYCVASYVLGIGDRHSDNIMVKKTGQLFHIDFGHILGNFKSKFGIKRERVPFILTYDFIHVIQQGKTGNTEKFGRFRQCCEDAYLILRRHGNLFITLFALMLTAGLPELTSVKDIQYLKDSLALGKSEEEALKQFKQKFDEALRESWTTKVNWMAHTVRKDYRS
UniProt P48736, whole entry: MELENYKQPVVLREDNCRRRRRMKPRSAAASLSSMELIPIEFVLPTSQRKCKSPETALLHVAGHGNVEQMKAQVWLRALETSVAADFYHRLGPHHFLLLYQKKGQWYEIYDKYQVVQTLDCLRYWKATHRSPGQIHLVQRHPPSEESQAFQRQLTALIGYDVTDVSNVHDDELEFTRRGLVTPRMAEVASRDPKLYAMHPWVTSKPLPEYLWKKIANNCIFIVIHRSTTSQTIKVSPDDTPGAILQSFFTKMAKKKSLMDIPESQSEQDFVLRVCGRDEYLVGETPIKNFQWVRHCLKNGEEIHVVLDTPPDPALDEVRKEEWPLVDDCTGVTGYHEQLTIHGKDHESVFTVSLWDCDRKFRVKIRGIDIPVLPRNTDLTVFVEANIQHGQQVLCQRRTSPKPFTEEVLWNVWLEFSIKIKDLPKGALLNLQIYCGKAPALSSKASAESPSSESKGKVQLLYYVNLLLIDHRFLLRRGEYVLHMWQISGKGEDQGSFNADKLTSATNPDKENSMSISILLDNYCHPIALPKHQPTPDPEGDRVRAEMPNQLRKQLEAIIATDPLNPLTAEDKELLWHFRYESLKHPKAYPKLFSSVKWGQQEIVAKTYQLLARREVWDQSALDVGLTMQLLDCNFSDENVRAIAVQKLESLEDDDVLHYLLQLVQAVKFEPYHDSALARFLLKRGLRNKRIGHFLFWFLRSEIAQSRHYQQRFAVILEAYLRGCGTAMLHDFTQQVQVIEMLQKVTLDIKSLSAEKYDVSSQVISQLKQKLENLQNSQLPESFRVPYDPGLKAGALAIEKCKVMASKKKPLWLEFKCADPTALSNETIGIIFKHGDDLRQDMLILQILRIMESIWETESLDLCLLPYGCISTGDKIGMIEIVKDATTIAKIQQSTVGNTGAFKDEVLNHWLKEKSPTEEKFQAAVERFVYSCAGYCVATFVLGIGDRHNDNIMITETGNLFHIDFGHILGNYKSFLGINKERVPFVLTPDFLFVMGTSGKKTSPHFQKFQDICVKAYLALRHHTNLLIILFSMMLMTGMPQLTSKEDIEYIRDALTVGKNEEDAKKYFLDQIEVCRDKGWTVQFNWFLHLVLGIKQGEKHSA
UniProt O00329, whole entry: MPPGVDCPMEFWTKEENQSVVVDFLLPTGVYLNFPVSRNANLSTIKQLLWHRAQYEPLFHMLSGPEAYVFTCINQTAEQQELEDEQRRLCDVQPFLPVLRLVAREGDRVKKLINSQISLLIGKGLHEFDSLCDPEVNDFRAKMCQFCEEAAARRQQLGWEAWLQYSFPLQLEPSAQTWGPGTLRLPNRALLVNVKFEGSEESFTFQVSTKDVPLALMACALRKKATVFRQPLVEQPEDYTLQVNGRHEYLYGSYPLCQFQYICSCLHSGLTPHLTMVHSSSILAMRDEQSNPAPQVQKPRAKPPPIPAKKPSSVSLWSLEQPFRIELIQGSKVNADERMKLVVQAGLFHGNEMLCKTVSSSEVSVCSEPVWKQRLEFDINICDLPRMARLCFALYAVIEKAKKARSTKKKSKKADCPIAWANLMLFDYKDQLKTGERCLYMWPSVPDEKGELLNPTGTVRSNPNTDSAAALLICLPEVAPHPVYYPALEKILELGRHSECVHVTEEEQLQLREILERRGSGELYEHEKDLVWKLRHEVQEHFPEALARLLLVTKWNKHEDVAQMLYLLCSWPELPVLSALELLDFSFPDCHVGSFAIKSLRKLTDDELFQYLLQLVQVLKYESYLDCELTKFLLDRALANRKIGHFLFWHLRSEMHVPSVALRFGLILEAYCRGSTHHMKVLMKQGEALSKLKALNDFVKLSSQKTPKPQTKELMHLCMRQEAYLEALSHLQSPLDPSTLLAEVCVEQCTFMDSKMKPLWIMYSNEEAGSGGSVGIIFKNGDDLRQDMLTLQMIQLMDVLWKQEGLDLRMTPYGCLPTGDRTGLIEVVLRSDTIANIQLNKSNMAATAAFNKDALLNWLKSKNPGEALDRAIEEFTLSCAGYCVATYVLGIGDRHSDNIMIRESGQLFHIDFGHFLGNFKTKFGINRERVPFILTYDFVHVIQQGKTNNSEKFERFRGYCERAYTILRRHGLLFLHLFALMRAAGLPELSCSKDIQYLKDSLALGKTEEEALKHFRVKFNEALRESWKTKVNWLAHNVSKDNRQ
UniProt P27986, whole entry partner: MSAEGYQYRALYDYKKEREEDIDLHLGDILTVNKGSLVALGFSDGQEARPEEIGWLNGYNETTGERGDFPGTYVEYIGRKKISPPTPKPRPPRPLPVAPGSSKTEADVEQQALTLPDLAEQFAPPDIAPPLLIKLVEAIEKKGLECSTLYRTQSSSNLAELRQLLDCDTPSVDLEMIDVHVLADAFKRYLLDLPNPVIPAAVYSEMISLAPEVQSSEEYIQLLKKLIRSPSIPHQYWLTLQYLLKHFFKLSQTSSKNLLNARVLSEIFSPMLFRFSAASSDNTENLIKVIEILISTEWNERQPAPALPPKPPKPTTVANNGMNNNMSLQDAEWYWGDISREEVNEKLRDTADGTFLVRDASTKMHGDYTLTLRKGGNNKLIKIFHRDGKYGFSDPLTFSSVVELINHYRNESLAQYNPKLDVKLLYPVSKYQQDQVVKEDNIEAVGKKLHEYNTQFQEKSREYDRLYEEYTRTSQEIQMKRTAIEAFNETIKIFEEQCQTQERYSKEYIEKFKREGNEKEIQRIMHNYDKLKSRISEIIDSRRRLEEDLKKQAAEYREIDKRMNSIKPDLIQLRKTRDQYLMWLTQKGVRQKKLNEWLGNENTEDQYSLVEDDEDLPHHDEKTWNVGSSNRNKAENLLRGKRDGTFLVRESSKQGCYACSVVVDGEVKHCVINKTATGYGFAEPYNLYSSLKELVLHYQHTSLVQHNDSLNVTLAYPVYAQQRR

SMILES strings stand for the structures. pIC50: −log10 of the molar value.

The target in one data set is PI3Kα (Homo sapiens, UniProt P42336). The data set is described as follows: In vitro test of enzyme activity (ADP-Glo lipokinase), PI3K alpha. To be noted: read-out: PI3Kα IC50, 40 μM ATP, 50 μM PIP2:3PS, 120 min. A general note: In ADP-Glo the light output rises with the ADP produced.
A further data set has as its target PI3Kβ (Homo sapiens, UniProt P42338). The data set is described as follows: In vitro test of enzyme activity (ADP-Glo lipokinase), PI3K beta. To be noted: read-out: PI3Kβ IC50, 40 μM ATP, 50 μM PIP2:3PS, 120 min.
For data set [1], the system named is phosphorylation of PI3K downstream protein Akt in MCF7 cells. The data set is described as follows: In vitro test of cells activity: ELISA of Akt phosphorylation in MCF7 cells. To be noted: read-out: MCF7 Cell IC50, 2 h compound, insulin 10 μg/mL stimulation, pAkt ELISA.
Another data set has as its target PI3Kγ (Homo sapiens, UniProt P48736). The data set is described as follows: In vitro test of enzyme activity (ADP-Glo lipokinase), PI3K gamma. To be noted: read-out: PI3Kγ IC50, 25 μM ATP, 50 μM PIP2:3PS, 120 min.
Another data set addresses PI3Kδ (Homo sapiens, UniProt O00329). The data set is described as follows: In vitro test of enzyme activity (ADP-Glo lipokinase), PI3K delta. To be noted: read-out: PI3Kδ IC50, 40 μM ATP, 50 μM PIP2:3PS, 120 min.
The nature of data set [2]: In vivo DMPK study in mice after a single administration. Details: species or system female Balb/c mice. To be noted: for Cmax / Oral DNAUC (area under the dose normalization curve): oral; for Cl (clearance rate) / Intravenous injection T1/2 / Vd (apparent volume of distribution): intravenous 1 mg/kg; for F % (oral bioavailability): oral 10 mpk vs intravenous 1 mg/kg.

For the compound `CNC(=O)C(COC)Cn1cnc2ccc(-c3cnc(OC)c(NS(=O)(=O)c4ccc(F)cc4Cl)c3)cc2c1=O` (single isomer, unassigned), the figures for the pIC50 (on PI3Kα; on PI3Kβ; in data set [1]) were 7.67, 6.50 and 7.03, respectively.

On to `COc1ncc(-c2ccc3ncn(CCCC(=O)NC(C)C)c(=O)c3c2)cc1NS(=O)(=O)c1ccc(F)cc1Cl`, for which the pIC50 on PI3Kα was 8.83; on PI3Kβ, 6.95; in data set [1], 7.88; on PI3Kγ it was 7.93; on PI3Kδ, 8.45.

In the case of `Cc1nc(C)c(S(=O)(=O)Nc2cc(-c3ccc4ncn([C@H]5C[C@H](C(=O)N6CCCC6)C5)c(=O)c4c3)cnc2C)s1`, the pIC50 on PI3Kα is 9.38; at PI3Kβ, 6.79; in data set [1] it was 6.82; at PI3Kγ, 8.08; at PI3Kδ it was 8.90.

In the case of `Cc1nc(C)c(S(=O)(=O)Nc2cc(-c3ccc4ncn([C@H]5C[C@H](C(=O)NC(C)C)C5)c(=O)c4c3)cnc2C)s1`, the pIC50 is 9.16 on PI3Kα; 6.91 on PI3Kβ; 6.74 in data set [1]; 8.00 at PI3Kγ; 8.82 at PI3Kδ.

The term Cmax denotes the peak of the concentration-time curve. Consider `CNC(=O)C(C)Cn1cnc2ccc(-c3cnc(OC)c(NS(=O)(=O)c4cccc(C(F)(F)F)c4)c3)cc2c1=O` (single isomer, unassigned) [WX097], for which the maximum concentration (Cmax) in data set [2] (10 mpk) was 24.7 µM. Moreover, the “Oral DNAUC (area under the dose normalization curve)” value in data set [2] (10 mpk) is reported as 2018 nM · h/mpk. Further, the pIC50 at PI3Kα was 8.36; at PI3Kβ, 6.17; at PI3Kγ it was 7.34; on PI3Kδ it was 7.60.

Turning to `CNC(=O)C(C)Cn1cnc2ccc(-c3cnc(OC)c(NS(=O)(=O)c4cccc(Cl)c4C)c3)cc2c1=O` (single isomer, unassigned) [WX139], the Cmax in data set [2] (10 mpk) was 10.1 µM. Besides, the “Oral DNAUC (area under the dose normalization curve)” value in data set [2] (10 mpk) is on record as 1118 nM · h/mpk. Further, the pIC50 on PI3Kα is 8.48; at PI3Kβ it was 6.23; in data set [1] it was 7.97.

Consider `COc1ncc(-c2ccc3ncn(CC(C)C(N)=O)c(=O)c3c2)cc1NS(=O)(=O)c1ccc(F)cc1Cl` (single isomer, unassigned) [WX018], for which, in data set [2], the “Cl (clearance rate)” value stood at 9.80 mL/min/kg, the “Intravenous injection T1/2” value worked out at 55.1 min, the “Vd (apparent volume of distribution)” value worked out at 0.529 L/kg and the “F % (oral bioavailability)” value is on record as 50.3%. In data set [2] (10 mpk, 10 mg/kg), the “Oral DNAUC (area under the dose normalization curve)” value is 1599 nM · h/mpk. The pIC50 on PI3Kα is 8.69. Also, the pIC50 at PI3Kβ was 6.77. Further, on PI3Kγ, the pIC50 was 7.83. Also, the pIC50 on PI3Kδ was 7.99.

As for `CNC(=O)C(C)Cn1cnc2ccc(-c3cnc(OC)c(NS(=O)(=O)c4cc(C)cc(C)c4)c3)cc2c1=O` (single isomer, unassigned) [WX145], the pIC50 on PI3Kα is 8.06; at PI3Kβ it was 5.98; in data set [1], 8.04; at PI3Kγ, 6.85; at PI3Kδ, 7.12.

In the case of `Cc1nc(C)c(S(=O)(=O)Nc2cc(-c3ccc4ncn([C@H]5C[C@@H](C(=O)N6CCCC6)C5)c(=O)c4c3)cnc2C)s1`, the pIC50 on PI3Kα is 8.55; on PI3Kβ, 6.49; in data set [1], 6.94; at PI3Kγ it was 7.15; at PI3Kδ, 8.87.

Compound `COc1ncc(-c2ccc3ncn(CC(C)C(=O)NC(C)C)c(=O)c3c2)cc1NS(=O)(=O)c1ccc(F)cc1Cl` (single isomer, unassigned) [WX078] displayed a Cmax in data set [2] (2 mpk) of 2.92 µM. The “Oral DNAUC (area under the dose normalization curve)” value in data set [2] (2 mpk) was found to be 787 nM · h/mpk. Further, the pIC50 at PI3Kα was 8.16; at PI3Kβ it was 5.77; at PI3Kγ, 7.53; on PI3Kδ it was 7.82.

In the case of `CCNC(=O)C(C)Cn1cnc2ccc(-c3cnc(OC)c(NS(=O)(=O)c4ccc(F)cc4Cl)c3)cc2c1=O` (single isomer, unassigned) [WX060], in data set [2], the “Cl (clearance rate)” value is 12.8 mL/min/kg, the “Intravenous injection T1/2” value amounted to 16.7 min, the “Vd (apparent volume of distribution)” value is recorded as 0.222 L/kg and the “F % (oral bioavailability)” value stood at 30.7%. In addition, in data set [2] (10 mpk), the Cmax amounted to 9.13 µM and the “Oral DNAUC (area under the dose normalization curve)” value was determined as 695 nM · h/mpk. Also, at PI3Kα, the pIC50 is 8.46. Further, the pIC50 on PI3Kβ was 6.19. Besides, the pIC50 at PI3Kγ was 7.66. Also, the pIC50 at PI3Kδ was 7.71.

With `CNC(=O)C(C)Cn1cnc2ccc(-c3cnc(OC)c(NS(=O)(=O)c4cccc(Cl)c4Cl)c3)cc2c1=O` (single isomer, unassigned) [WX151], the Cmax in data set [2] (10 mpk) is 24 µM. Moreover, the “Oral DNAUC (area under the dose normalization curve)” value in data set [2] (10 mpk) was found to be 5704 nM · h/mpk. The pIC50 was 8.97 at PI3Kα, 6.73 at PI3Kβ, 8.02 at PI3Kγ and 7.91 on PI3Kδ.

For the compound `CNC(=O)C(C)Cn1cnc2ccc(-c3cnc(OC)c(NS(=O)(=O)c4ccc(F)c(C(F)(F)F)c4)c3)cc2c1=O` (single isomer, unassigned) [WX229], the pIC50 on PI3Kα was 7.94; on PI3Kβ, 5.93; in data set [1], 6.96; at PI3Kγ, 6.85; on PI3Kδ, 7.24.

With `CCOc1ncc(-c2ccc3ncn(CC(C)C(=O)NC)c(=O)c3c2)cc1NS(=O)(=O)c1ccc(F)cc1Cl` (single isomer, unassigned) [WX158], the pIC50 is 7.63 at PI3Kα, 5.95 at PI3Kβ and 6.81 in data set [1].

In the case of `CNC(=O)C(C)Cn1cnc2ccc(-c3cnc(OC)c(NS(=O)(=O)c4ccc(Cl)cc4Cl)c3)cc2c1=O` (single isomer, unassigned) [WX153], the maximum concentration (Cmax) in data set [2] (10 mpk) was 37 µM. Moreover, the “Oral DNAUC (area under the dose normalization curve)” value in data set [2] (10 mpk) was 6560 nM · h/mpk. Moreover, the pIC50 was 8.67 at PI3Kα, 6.56 on PI3Kβ, 7.64 on PI3Kγ and 7.94 at PI3Kδ.

For the compound `CNC(=O)C(C)Cn1cnc2ccc(-c3cnc(OC)c(NS(=O)(=O)c4cc(F)ccc4F)c3)cc2c1=O` (single isomer, unassigned) [WX224], the pIC50 on PI3Kα is 8.51; on PI3Kβ it was 6.49; in data set [1], 7.36; on PI3Kγ, 7.63; on PI3Kδ, 7.66.

Consider `CNC(=O)C(C)Cn1cnc2ccc(-c3cnc(OC)c(NS(=O)(=O)c4ccc(C(F)(F)F)cc4Cl)c3)cc2c1=O` (single isomer, unassigned) [WX212], for which the pIC50 on PI3Kα was 8.75; on PI3Kβ it was 6.60; in data set [1], 7.55; on PI3Kγ, 7.56; on PI3Kδ, 8.04.

On to `CNC(=O)C(C)Cn1cnc2ccc(-c3cnc(OC)c(NS(=O)(=O)c4cc(F)ccc4C)c3)cc2c1=O` (single isomer, unassigned) [WX226], for which the pIC50 on PI3Kα is 8.60; on PI3Kβ, 6.55; in data set [1], 7.35.

Regarding `CNC(=O)C(C)Cn1cnc2ccc(-c3cnc(OC)c(NS(=O)(=O)c4sc(C)nc4C)c3)cc2c1=O` (single isomer, unassigned) [WX068], in data set [2], the “Cl (clearance rate)” value was 5.49 mL/min/kg, the “Intravenous injection T1/2” value amounted to 138 min, the “Vd (apparent volume of distribution)” value is 0.229 L/kg and the “F % (oral bioavailability)” value turned out to be 18.4%. For the same compound, in data set [2] (10 mpk), the Cmax worked out at 10.6 µM and the “Oral DNAUC (area under the dose normalization curve)” value is listed as 1021 nM · h/mpk. For the same compound, the pIC50 at PI3Kα is 9.33. In addition, the pIC50 at PI3Kβ was 7.27. In addition, the pIC50 on PI3Kγ was 8.26. Besides, the pIC50 on PI3Kδ was 9.01.

As for `CNC(=O)C(C)Cn1cnc2ccc(-c3cnc(OC)c(NS(=O)(=O)c4ccc(C(F)(F)F)cc4)c3)cc2c1=O` (single isomer, unassigned) [WX149], the pIC50 at PI3Kα was 8.32; at PI3Kβ it was 6.25; in data set [1] it was 7.57; at PI3Kγ, 7.19; at PI3Kδ, 7.70.

With `CNC(=O)C(C)Cn1cnc2ccc(-c3cnc(OC)c(NS(=O)(=O)c4ccc(F)cc4Cl)c3)cc2c1=O` (single isomer, unassigned) [WX030], the pIC50 on PI3Kα was 8.63; on PI3Kβ, 7.05; in data set [1], 7.23; at PI3Kγ it was 7.94; on PI3Kδ it was 8.00.

For `CNC(=O)C(C)Cn1cnc2ccc(-c3cnc(OC)c(NS(=O)(=O)c4cccc(F)c4C)c3)cc2c1=O` (single isomer, unassigned) [WX216], the pIC50 on PI3Kα was 8.59; at PI3Kβ, 6.36; in data set [1], 7.31; on PI3Kγ, 7.46; at PI3Kδ it was 7.41.

As to `CNC(=O)C(C)Cn1cnc2ccc(-c3cnc(OC)c(NS(=O)(=O)c4cc(Cl)cc(Cl)c4)c3)cc2c1=O` (single isomer, unassigned) [WX228], the pIC50 at PI3Kα is 8.57; at PI3Kβ it was 6.41; in data set [1], 8.21; at PI3Kγ, 7.24; on PI3Kδ, 7.15.

Take `CNC(=O)C(C)Cn1cnc2ccc(-c3cnc(OC)c(NS(=O)(=O)c4c(C)noc4C)c3)cc2c1=O` (single isomer, unassigned) [WX093]: the pIC50 on PI3Kα was 8.37; on PI3Kβ, 6.20; in data set [1] it was 6.65; at PI3Kγ it was 7.37; on PI3Kδ, 7.71.
